Data published in US20240376128A1, “N-CYCLOPROPYLPYRIDO [4, 3-D] PYRIMIDIN-4-AMINE DERIVATIVES AND USES THEREOF” (Jacobio Pharmaceuticals Co., Ltd., priority 2021, published 2024).

Sequences of proteins named here, by UniProt entry; tags and fusion partners are left off. A change or cut given only in a name is not applied to a line headed by its entry.
UniProt P01116: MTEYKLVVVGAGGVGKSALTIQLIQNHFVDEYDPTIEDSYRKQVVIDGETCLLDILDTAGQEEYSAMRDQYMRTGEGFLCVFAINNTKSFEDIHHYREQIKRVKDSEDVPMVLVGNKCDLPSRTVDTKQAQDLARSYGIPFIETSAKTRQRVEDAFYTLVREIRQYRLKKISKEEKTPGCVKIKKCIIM

Assays:
[1] = system: NCI-H747 cell line (K-Ras G13D); experiment: Phospho-ERK1/2(THR202/TYR204) HTRF assay; type: cell-based; conditions: Homo sapiens; NCI-H747 cells (K-Ras G13D), 2 hours incubation; read-out: p-ERK, IC50(nM) NCI-H747
[2] = biological target: K-Ras G12D (Homo sapiens, UniProt P01116, G12D); experiment: SOS1 catalyzed nucleotide exchange assay (GDP form K-Ras), TR-FRET; conditions: read-out: Biochemical assays, IC50, K-Ras G12D GDP
[3] = system: K-Ras mutant and K-Ras WT cell lines indicated in Table 20; experiment: 3D cell growth inhibition assay (CellTiter-Glo 3D, 6 days); type: cell-based; conditions: Homo sapiens, 144 h
[4] = Capan-2 (K-Ras G12V), absolute IC50, read-out: Cell Growth Inhibition, IC50, Capan-2
[5] = NCI-H747 (K-Ras G13D), absolute IC50, read-out: Cell Growth Inhibition, IC50, NCI-H747

| SMILES | IC50 [1] | IC50 [2] | IC50 [3, 4] | IC50 [3, 5] |
| --- | --- | --- | --- | --- |
| C#Cc1c(F)ccc2cc(O)cc(-c3ncc4c(N(CC)[C@@H]5C[C@H]5F)nc(OC[C@@]56CCCN5C[C@H](F)C6)nc4c3F)c12.O=C(O)C(F)(F)F (mixture of isomers) [Compound 6, 4-(4-(ethyl(trans-2-fluorocyclopropyl)amino)-8-fluoro-2-(((2R,7aS)-2-fluorotetrahydro-1H-pyrrolizin-7a(5H)-yl)methoxy)pyrido[4,3-d]pyrimidin-7-yl)-5-ethynyl-6-fluoronaphthalen-2-ol 2,2,2-trifluoroacetic acid] | 7.9 nM | 1.32 nM | 121 nM | 22.9 nM |
| C=Cc1c(F)ccc2cc(O)cc(-c3ncc4c(N(C)[C@@H]5C[C@H]5F)nc(OC[C@@]56CCCN5C[C@H](F)C6)nc4c3F)c12.O=C(O)C(F)(F)F (mixture of isomers) [Compound 16, 6-fluoro-4-(8-fluoro-4-((trans-2-fluorocyclopropyl)(methyl)amino)-2-(((2R,7aS)-2-fluorotetrahydro-1H-pyrrolizin-7a(5H)-yl)methoxy)pyrido[4,3-d]pyrimidin-7-yl)-5-vinylnaphthalen-2-ol 2,2,2-trifluoroacetic acid] | 20.1 nM | 1.98 nM | 51.6 nM | 41.2 nM |
| C#Cc1c(F)ccc2cc(O)cc(-c3ncc4c(N(C)C5CC5)nc(OC[C@@]56CCCN5C[C@H](F)C6)nc4c3F)c12 [Compound 1, 4-(4-(cyclopropyl(methyl)amino)-8-fluoro-2-(((2R,7aS)-2-fluorotetrahydro-1H-pyrrolizin-7a(5H)-yl)methoxy)pyrido[4,3-d]pyrimidin-7-yl)-5-ethynyl-6-fluoronaphthalen-2-ol] | 6.5 nM | 3.9 nM | 112 nM | 48.5 nM |
| C#Cc1c(F)ccc2cc(O)cc(-c3ncc4c(N(C)[C@H]5C[C@@H]5F)nc(OC[C@@]56CCCN5C[C@H](F)C6)nc4c3F)c12 [Compound 3A, 5-ethynyl-6-fluoro-4-(8-fluoro-4-(((1S,2S)-2-fluorocyclopropyl)(methyl)amino)-2-(((2R,7aS)-2-fluorotetrahydro-1H-pyrrolizin-7a(5H)-yl)methoxy)pyrido[4,3-d]pyrimidin-7-yl)naphthalen-2-ol] | 3.41 nM | 1.21 nM | 10.4 nM | 17.6 nM |
| [2H]C([2H])([2H])N(c1nc(OC([2H])([2H])[C@@]23CCC([2H])([2H])N2C[C@]([2H])(F)C3)nc2c(F)c(-c3cc(O)cc4ccc(F)c(C#C)c34)ncc12)C1CC1 [Compound 26, 4-(4-(cyclopropyl(methyl-d3)amino)-8-fluoro-2-(((2R,7aS)-2-fluorotetrahydro-1H-pyrrolizin-7a(5H)-yl-2,5,5-d3)methoxy-d2)pyrido[4,3-d]pyrimidin-7-yl)-5-ethynyl-6-fluoronaphthalen-2-ol] | 18.8 nM | 6.92 nM | – | 99.2 nM |
| C#Cc1c(F)ccc2cc(O)cc(-c3ncc4c(N(C)[C@@H]5C[C@H]5OC)nc(OC[C@@]56CCCN5C[C@H](F)C6)nc4c3F)c12 [Compound 41, 5-ethynyl-6-fluoro-4-(8-fluoro-2-(((2R,7aS)-2-fluorotetrahydro-1H-pyrrolizin-7a(5H)-yl)methoxy)-4-((trans-2-methoxycyclo-propyl)(methyl)amino)pyrido[4,3-d]pyrimidin-7-yl)naphthalen-2-ol] | – | 282 nM | – | – |
| C#Cc1c(F)ccc2cc(O)cc(-c3ncc4c(N(C)[C@@H]5C[C@H]5COC)nc(OC[C@@]56CCCN5C[C@H](F)C6)nc4c3F)c12 [Compound 42, 5-ethynyl-6-fluoro-4-(8-fluoro-2-(((2R,7aS)-2-fluorotetrahydro-1H-pyrrolizin-7a(5H)-yl)methoxy)-4-((trans-2-(methoxymethyl)cyclopropyl)(methyl)amino)pyrido[4,3-d]pyrimidin-7-yl)naphthalen-2-ol 2,2,2-trifluoroacetic acid] | – | 1940 nM | – | – |
| C#Cc1c(F)ccc2cc(O)cc(-c3ncc4c(N(C)[C@@H]5C[C@H]5C(F)(F)F)nc(OC[C@@]56CCCN5C[C@H](F)C6)nc4c3F)c12 [Compound 43, 5-ethynyl-6-fluoro-4-(8-fluoro-2-(((2R,7aS)-2-fluorotetrahydro-1H-pyrrolizin-7a(5H)-yl)methoxy)-4-(methyl(trans-2-(trifluoro-methyl)cyclopropyl)amino)pyrido[4,3-d]pyrimidin-7-yl)naphthalen-2-ol 2,2,2-trifluoroacetic acid] | – | 75.9 nM | – | – |
| C#Cc1c(F)ccc2cc(O)cc(-c3ncc4c(N(CC)C5CC5)nc(OC[C@@]56CCCN5C[C@H](F)C6)nc4c3F)c12 [Compound 47, 4-(4-(cyclopropyl(ethyl)amino)-8-fluoro-2-(((2R,7aS)-2-fluorotetrahydro-1H-pyrrolizin-7a(5H)-yl)methoxy)pyrido[4,3-d]pyrimidin-7-yl)-5-ethynyl-6-fluoronaphthalen-2-ol] | 16.8 nM | 1.72 nM | 231 nM | 57.4 nM |
| C#Cc1c(F)ccc2cc(O)cc(-c3ncc4c(N(C5CC5)C5CC5)nc(OC[C@@]56CCCN5C[C@H](F)C6)nc4c3F)c12 [Compound 48, 4-(4-(dicyclopropylamino)-8-fluoro-2-(((2R, 7aS)-2-fluorotetrahydro-1H-pyrrolizin-7a(5H)-yl)methoxy)pyrido[4,3-d]pyrimidin-7-yl)-5-ethynyl-6-fluoronaphthalen-2-ol] | – | 134 nM | – | – |
| C#Cc1c(F)ccc2cc(O)cc(-c3ncc4c(N(C)C5CC5C)nc(OC[C@@]56CCCN5C[C@H](F)C6)nc4c3F)c12 (stereo partly drawn) [Compound 49, 5-ethynyl-6-fluoro-4-(8-fluoro-2-(((2R,7aS)-2-fluorotetrahydro-1H-pyrrolizin-7a(5H)-yl)methoxy)-4-(methyl(2-methylcyclo-propyl)amino)pyrido[4,3-d]pyrimidin-7-yl)naphthalen-2-ol] | 32.3 nM | 1.99 nM | 76.4 nM | 79.7 nM |
| C#Cc1c(F)ccc2cc(O)cc(-c3ncc4c(N(C)C5CC56CC6)nc(OC[C@@]56CCCN5C[C@H](F)C6)nc4c3F)c12 (stereo partly drawn) [Compound 51, 5-ethynyl-6-fluoro-4-(8-fluoro-2-(((2R,7aS)-2-fluorotetrahydro-1H-pyrrolizin-7a(5H)-yl)methoxy)-4-(methyl(spiro[2.2]pentan-1-yl)amino)pyrido[4,3-d]pyrimidin-7-yl)naphthalen-2-ol] | – | 61.7 nM | – | – |
| C#Cc1c(F)ccc2cc(O)cc(-c3ncc4c(N(C)C5CC56CCC6)nc(OC[C@@]56CCCN5C[C@H](F)C6)nc4c3F)c12 (stereo partly drawn) [Compound 52, 5-ethynyl-6-fluoro-4-(8-fluoro-2-(((2R,7aS)-2-fluorotetrahydro-1H-pyrrolizin-7a(5H)-yl)methoxy)-4-(methyl(spiro[2.3]hexan-1-yl)amino)pyrido[4,3-d]pyrimidin-7-yl)naphthalen-2-ol] | – | 208 nM | – | – |
| C#Cc1c(F)ccc2cc(O)cc(-c3ncc4c(NC5C6COCC65)nc(OC[C@@]56CCCN5C[C@H](F)C6)nc4c3F)c12 (stereo partly drawn) [Compound 53, 4-(4-((3-oxabicyclo[3.1.0]hexan-6-yl)amino)-8-fluoro-2-(((2R,7aS)-2-fluorotetrahydro-1H-pyrrolizin-7a(5H)-yl)methoxy)pyrido[4,3-d]pyrimidin-7-yl)-5-ethynyl-6-fluoronaphthalen-2-ol] | – | 17.1 nM | – | – |
| C#Cc1c(F)ccc2cc(O)cc(-c3ncc4c(NC5C6CCCCC65)nc(OC[C@@]56CCCN5C[C@H](F)C6)nc4c3F)c12 (stereo partly drawn) [Compound 55, 4-(4-(bicyclo[4.1.0]heptan-7-ylamino)-8-fluoro-2-(((2R,7aS)-2-fluorotetrahydro-1H-pyrrolizin-7a(5H)-yl)methoxy)pyrido[4,3-d]pyrimidin-7-yl)-5-ethynyl-6-fluoronaphthalen-2-ol] | – | 774 nM | – | – |
| C#Cc1c(F)ccc2cc(O)cc(-c3ncc4c(NC5(C(F)(F)F)CC5)nc(OC[C@@]56CCCN5C[C@H](F)C6)nc4c3F)c12 [Compound 57, 5-ethynyl-6-fluoro-4-(8-fluoro-2-(((2R,7aS)-2-fluorotetrahydro-1H-pyrrolizin-7a(5H)-yl)methoxy)-4-((1-(trifluoromethyl)cyclopropyl)amino)pyrido[4,3-d]pyrimidin-7-yl)naphthalen-2-ol] | – | 157 nM | – | – |
| C#Cc1c(F)ccc2cc(O)cc(-c3ncc4c(NC5(COC)CC5)nc(OC[C@@]56CCCN5C[C@H](F)C6)nc4c3F)c12 [Compound 58, 5-ethynyl-6-fluoro-4-(8-fluoro-2-(((2R,7aS)-2-fluorotetrahydro-1H-pyrrolizin-7a(5H)-yl)methoxy)-4-((1-(methoxymethyl)cyclopropyl)amino)pyrido[4,3-d]pyrimidin-7-yl)naphthalen-2-ol] | – | 25.9 nM | – | – |
| C#Cc1c(F)ccc2cc(O)cc(-c3ncc4c(N(C)C5(C#N)CC5)nc(OC[C@@]56CCCN5C[C@H](F)C6)nc4c3F)c12 [Compound 59, 1-((7-(8-ethynyl-7-fluoro-3-hydroxy-naphthalen-1-yl)-8-fluoro-2-(((2R,7aS)-2-fluorotetrahydro-1H-pyrrolizin-7a(5H)-yl)methoxy)pyrido[4,3-d]pyrimidin-4-yl)(methyl)amino)cyclopropane-1-carbonitrile] | – | 62.4 nM | – | – |

Like-named read-outs stand apart in the source and are kept apart here.
